{"source": "patent US20160022811A1", "about": "(Teva Pharmaceutical Industries Ltd., priority 2013, published 2016)", "origin": "cited, not measured here", "key": {"[1]": {"conditions": "subcutaneous administration, after one hour"}, "[2]": {"tested_on": "patients"}}}
{"substance": "L-glutamic acid polymer with L-alanine, L-lysine, L-tyrosine, acetate (salt) [glatiramer acetate]", "values": [{"measurement": "remaining at the injection site", "setting": "[1]", "result": 10, "unit": "%"}, {"measurement": "association with immunosuppression, malignancy or other autoimmune diseases", "setting": "[2]; 10- and 15-year follow-up visits", "result": "not associated"}, {"measurement": "duration of immediate post-injection systemic reaction symptoms", "setting": "[2]; human, in vivo", "result": "up to 30 minutes"}, {"measurement": "patients with immediate post-injection systemic reactions at least once", "setting": "[2]; human, in vivo", "result": "15-38%"}]}
